The record followed here is publication PMC8518382, “Identification of a Bromodomain‐like Region in 15‐Lipoxygenase‐1 Explains Its Nuclear Localization” (Angewandte Chemie (International Ed. in English), 2021).

The assay deals with T1, 15-LOX-2 (Homo sapiens, UniProt O15296).
T1 construct: endogenous in cells; host or cells: A549 cell lysate
T1 sequence (O15296 1-676): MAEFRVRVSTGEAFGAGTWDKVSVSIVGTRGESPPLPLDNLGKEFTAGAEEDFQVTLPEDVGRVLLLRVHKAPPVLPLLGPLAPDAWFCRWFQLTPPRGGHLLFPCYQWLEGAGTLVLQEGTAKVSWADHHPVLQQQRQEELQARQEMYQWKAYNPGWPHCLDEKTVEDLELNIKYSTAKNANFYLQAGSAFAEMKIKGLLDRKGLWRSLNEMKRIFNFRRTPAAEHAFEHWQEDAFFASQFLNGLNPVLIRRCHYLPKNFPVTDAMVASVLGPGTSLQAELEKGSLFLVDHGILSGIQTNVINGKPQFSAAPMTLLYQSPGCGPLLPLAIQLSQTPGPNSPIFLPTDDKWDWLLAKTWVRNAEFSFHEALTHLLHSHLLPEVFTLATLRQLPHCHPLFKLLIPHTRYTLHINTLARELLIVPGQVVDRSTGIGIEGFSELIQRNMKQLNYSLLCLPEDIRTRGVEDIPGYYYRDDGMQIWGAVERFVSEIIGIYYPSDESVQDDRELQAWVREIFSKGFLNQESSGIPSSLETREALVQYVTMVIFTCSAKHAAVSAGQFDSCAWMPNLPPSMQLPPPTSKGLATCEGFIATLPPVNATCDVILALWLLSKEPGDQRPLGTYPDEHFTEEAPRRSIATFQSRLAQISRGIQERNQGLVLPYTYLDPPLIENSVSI
Briefly: ABP-based ELISA assay with A549 cell lysate, 15-LOX-2. It is filed as biochemical. How it is done: A549 cell lysate was treated with a serial dilution of the respective inhibitor. Subsequently, samples were labeled by treatment with 1 μM of Labelox B for 1 min. […] Data are mean±s.d., n≥3 independent experiments. […]
1.6. Immunoblotting Analysis […]
1.7. ABPP-based LOX inhibitor specificity validation
A549 cells were lysed by RIPA buffer supplemented with 1x PIC. After sonication and centrifugation, the supernatant was collected, and the protein concentration was determined by a Pierce BCA Protein Assay Kit (Thermo Fisher Scientific, USA). The lysates were then diluted with PBS to 300 ng/µl and stored in -20°C. To label endogenous LOXs with Labelox B under the competition condition, 180 µl diluted lysates were incubated with 200 µl different LOX inhibitor solution (in PBS) with desired concentrations for 18 min to inhibit LOXs activity. Later, 20 µl of a 20 µM Labelox B (in PBS) was added and incubated shortly for 2 min, followed by adding 50 µl of a 0.5 M EDTA to stop the labeling reaction. The reaction mixture was 450 µl in total. Inhibitors and Labelox B were absent in positive and […]
(1 picture or pasted object on this page, not shown here) […]
negative control, respectively. […]
(1:500 dilution in PBS) for overnight at 4°C. […] The absorbance at […]
In general terms: ELISA stands for enzyme-linked immunosorbent assay.

`CC(c1cc2ccccc2s1)N(O)C(N)=O` (stereo not shown) [Zileuton]: the “Effect on ABP labeling” value is recorded as “little or no effect”.
